# Values quoted from earlier work, collected in US9956304B2, “Contrast agents, methods for preparing contrast agents, and methods of imaging” (GEORGIA STATE UNIVERSITY RESEARCH FOUNDATION, INC., priority 2012, dated 2018).
# Protein sequences, listed by entry. Tags and fused reporters are not part of them. Lines headed by an entry give the natural chain unless they say otherwise; changes in a name come on top.
# UniProt P30550: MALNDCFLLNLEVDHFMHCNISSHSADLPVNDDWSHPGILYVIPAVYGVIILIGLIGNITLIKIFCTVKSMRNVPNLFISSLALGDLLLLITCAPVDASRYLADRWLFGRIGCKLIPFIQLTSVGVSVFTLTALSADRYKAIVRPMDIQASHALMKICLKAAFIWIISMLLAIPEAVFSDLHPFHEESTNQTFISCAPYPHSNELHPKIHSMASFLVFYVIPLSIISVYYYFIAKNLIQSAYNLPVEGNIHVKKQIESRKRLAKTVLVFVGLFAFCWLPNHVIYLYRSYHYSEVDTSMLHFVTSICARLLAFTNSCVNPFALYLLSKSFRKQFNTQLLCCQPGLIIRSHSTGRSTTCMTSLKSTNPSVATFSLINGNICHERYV
# UniProt P07492: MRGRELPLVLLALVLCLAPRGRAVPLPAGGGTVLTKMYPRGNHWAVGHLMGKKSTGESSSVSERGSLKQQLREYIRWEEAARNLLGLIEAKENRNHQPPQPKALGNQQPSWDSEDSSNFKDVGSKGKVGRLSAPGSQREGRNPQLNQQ
# Target: GRPR (Homo sapiens, UniProt P30550)
# Conditions: read-out: binding affinity to GRPR; cited from earlier work
substance,measurement,value
"GRP: gastrin release peptide, human homolog of bombesin (VPLPAGGGTVLTKMYPRGNHWAVGHLM; Gastrin-releasing peptide; UniProt P07492 24-50, looked up)",Kd,~6.6 nM
